Measured values from PubChem BioAssay AID1217 (Sanford-Burnham Center for Chemical Genomics, 2008).
Only a part is listed here, and it is no random draw. Active and inactive are the calls of the source.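 Rule for the calls: active = primary screen inhibition at 20 µM above a set limit (cut at about 50% in these data); inactive = the rest.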

Each compound was assayed on diaphorase (Clostridium kluyveri) (assay: diaphorase inhibitors and chemical oxidizers, primary screen, counter-screen for diaphorase-coupled primary assays, biochemical, uHTS, resorufin fluorescence (AID 1217;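 note: plate controls were DMSO with full reaction for no effect and wells lacking NADH for full effect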)). Conditions: diaphorase resazurin-to-resorufin fluorescence, NADH, 16 min; at 20 µM; active compounds read high; bacterial (C. kluyveri) enzyme, not human.

Structure (SMILES)	inhibition
Cc1ccccc1NP(C)(=O)Nc1ccccc1C	inactive: -3.1%
CP(=O)(Nc1ccc2c(c1)OCCO2)Oc1ccccc1 (centres undefined)	inactive: 11%
CCOP(C)(=S)SCC(=O)NC(C)(CC)C(=O)O (centres undefined)	inactive: 9.8%
O=[N+]([O-])c1cc([N+](=O)[O-])c(NCC2CCS(=O)(=O)C2)c([N+](=O)[O-])c1 (centres undefined)	inactive: 18.9%
COc1ccc(NP(C)(=O)Oc2ccccc2OC)cc1 (centres undefined)	inactive: 3.7%
CN(C)CCOC(=O)C(O)(c1ccccc1)C1CCCCC1 (centres undefined)	inactive: 3.7%
COc1ccc(OP(C)(=O)Nc2cccc(Br)c2)cc1 (centres undefined)	inactive: 9.3%
CP(=O)(Nc1ccccc1)Oc1ccc(F)cc1 (centres undefined)	inactive: -1.8%
CCN(CC)CCCOC(=O)C(O)(c1ccccc1)C1CCCCC1 (centres undefined)	inactive: 2.5%
COc1ccc(OP(C)(=O)Nc2ccc(SC(F)(F)F)cc2)cc1 (centres undefined)	inactive: 0%
CCOC(=O)c1ccc(NP(C)(=O)Oc2ccc(F)cc2)cc1 (centres undefined)	inactive: 4.9%
O=C(OCCN1CCN(CCOCc2ccccc2)CC1)C(O)(c1ccccc1)c1ccccc1	inactive: 10.9%
CC(C)c1ccc(OP(C)(=O)Nc2ccc(SC(F)(F)F)cc2)cc1 (centres undefined)	inactive: 30.8%
CP(=O)(Nc1ccccc1F)Oc1ccccc1 (centres undefined)	inactive: 3.3%
CCc1ccc(OP(C)(=O)O)cc1	inactive: 3.7%
COc1ccccc1OP(C)(=O)Nc1ccc(C)cc1C (centres undefined)	inactive: 6.3%
CP(=O)(Nc1ccccn1)Oc1ccccc1 (centres undefined)	inactive: 11.3%
Cc1c(NP(C)(=O)Oc2ccc(C(C)C)cc2)c(=O)n(-c2ccccc2)n1C (centres undefined)	inactive: -12.9%
O=[N+]([O-])c1cc([N+](=O)[O-])c(Nc2ccccn2)c([N+](=O)[O-])c1	inactive: 11.3%
CN(C)CCOC(=O)C(O)(c1ccccc1)C1CCCC1 (centres undefined)	inactive: 4.2%
CP(=O)(Nc1ccc(Cl)cc1Cl)Oc1ccccc1 (centres undefined)	inactive: 9.5%
CP(=O)(OCCOc1ccccc1)OCCOc1ccccc1	inactive: 1.5%
Cc1nc2ccc3ccccc3c2o1.O=[N+]([O-])c1cc([N+](=O)[O-])c(O)c([N+](=O)[O-])c1	inactive: 47.6%

Structure (SMILES)	inhibition
COc1ccc(OP(C)(=O)Nc2ccccc2Br)cc1 (centres undefined)	inactive: 8.4%
COc1ccccc1OP(C)(=O)Nc1ccc(C)c(C)c1 (centres undefined)	inactive: 7.2%
Cc1cc(C)cc(OP(C)(=O)Nc2cccc(C(F)(F)F)c2)c1 (centres undefined)	inactive: 22.6%
CP(=O)(OC12CC3CC(CC(C3)C1)C2)OC12CC3CC(CC(C3)C1)C2	inactive: 15.2%
CCOC(=O)c1ccc(NP(C)(=O)Oc2ccc(Cl)cc2)cc1 (centres undefined)	inactive: 4.7%
CN(C)C(=O)c1c([N+](=O)[O-])cc([N+](=O)[O-])cc1[N+](=O)[O-]	inactive: 13.4%
CP(=O)(Nc1ccc(Cl)cc1)Oc1ccc(F)cc1 (centres undefined)	inactive: 11.3%
COc1ccccc1OP(C)(=O)Nc1ccccc1Br (centres undefined)	inactive: 10.2%
CC(C)(C)c1ccc(OP(C)(=O)O)cc1	inactive: 8.5%
CCc1ccc(OP(C)(=O)Nc2cccnc2)cc1 (centres undefined)	inactive: 8.9%
CP(=O)(Oc1ccccc1)N1CCOC1=O (centres undefined)	inactive: 2.3%
COc1ccccc1OP(C)(=O)Nc1c(C)n(C)n(-c2ccccc2)c1=O (centres undefined)	inactive: 12.7%
COc1ccc(OP(C)(=O)Nc2ccc(Br)cc2)cc1 (centres undefined)	inactive: 23.8%
CCN(CC)CC(O)COC(=O)C(O)(c1ccccc1)C1CCCCC1 (centres undefined)	inactive: 9.9%
CP(=O)(Nc1ccccn1)Oc1ccc(Cl)cc1 (centres undefined)	inactive: -8.9%
CCOP(C)(=S)SCC(=O)NC(C)C(=O)O (centres undefined)	inactive: 17.3%
CCOC(=O)c1ccc(NP(C)(=O)Oc2ccc(OC)cc2)cc1 (centres undefined)	inactive: 13.4%
Cc1cc(C)cc(OP(C)(=O)Nc2ccc(SC(F)(F)F)cc2)c1 (centres undefined)	inactive: 28.1%
CP(=O)(NC(=O)Nc1ccccc1)Oc1ccccc1 (centres undefined)	inactive: 10.2%
CP(=O)(Oc1ccccc1)OC(c1ccccc1)C(F)(F)F (centres undefined)	inactive: 10.7%
Cc1cccc(C)c1OP(C)(=O)Nc1ccc(SC(F)(F)F)cc1 (centres undefined)	inactive: 29%
COc1ccccc1OP(C)(=O)Nc1ccccc1 (centres undefined)	inactive: 10.7%
CP(=O)(Nc1ccccc1Br)Oc1ccccc1 (centres undefined)	inactive: 12.1%

Structure (SMILES)	inhibition
CP(=S)(Nn1cnnc1)Oc1ccccc1 (centres undefined)	inactive: 12.6%
COc1ccc(OP(C)(=O)Nc2cccc(F)c2)cc1 (centres undefined)	inactive: 3.5%
COc1ccccc1OP(C)(=O)Nc1cc(Cl)ccc1C (centres undefined)	inactive: 11.6%
Cc1cc(C)cc(OP(C)(N)=O)c1 (centres undefined)	inactive: 5.8%
CCOC(=O)c1ccc(NP(C)(=O)Oc2ccccc2)cc1 (centres undefined)	inactive: 6%
Cc1ccc(NP(C)(=O)Oc2ccccc2)c(C)c1 (centres undefined)	inactive: 1.3%
COc1ccccc1OP(C)(=O)Nc1ccc(C)cc1 (centres undefined)	inactive: 19.7%
Cc1cccc(C)c1OP(C)(N)=O (centres undefined)	inactive: -8.5%
CC(C)(C)c1ccc(OP(C)(=O)Nc2ccc(SC(F)(F)F)cc2)cc1 (centres undefined)	inactive: 26.4%
O=[N+]([O-])c1ccc2c(c1)C=Nc1ccccc1O2	inactive: 7.1%
CCN(CC)CCCOC(=O)C(O)(c1ccccc1)c1ccccc1	inactive: 6.8%
Cc1cc(C)cc(OP(C)(=O)Nc2ccccn2)c1 (centres undefined)	inactive: 11%
CP(=O)(Nc1cccc(Br)c1)Oc1ccccc1 (centres undefined)	inactive: 15.3%
Cc1ccc(C)c(NP(C)(=O)Oc2ccccc2)c1 (centres undefined)	inactive: -1.6%
Cc1cc(C)cc(OP(C)(=O)Nc2ccc(C)cc2C)c1 (centres undefined)	inactive: 7.1%
CCOC(=O)c1ccc(NP(C)(=O)Oc2cc(C)cc(C)c2)cc1 (centres undefined)	inactive: 0%
CC1=NCCc2c1[nH]c1ccccc21.O=[N+]([O-])c1cc([N+](=O)[O-])c(O)c([N+](=O)[O-])c1	inactive: -7.4%
CCCOc1ccc(NP(C)(=O)Oc2ccc(Cl)cc2)cc1 (centres undefined)	inactive: 2.6%
CP(=O)(Nc1ccc(SC(F)(F)F)cc1)Oc1ccccc1 (centres undefined)	inactive: 2.7%
CN1CCCCC1COC(=O)C1(O)c2ccccc2CCc2ccccc21 (centres undefined)	inactive: 10.1%
COc1ccccc1OP(C)(=O)Nc1c(C)cccc1C (centres undefined)	inactive: 8.2%
Cc1nc2ccc3ccccc3c2s1.O=[N+]([O-])c1cc([N+](=O)[O-])c(O)c([N+](=O)[O-])c1	inactive: 13.9%
O=[N+]([O-])c1cc([N+](=O)[O-])c(-n2nnc3ccccc32)c([N+](=O)[O-])c1	inactive: 6.4%
